The target of this test is Tyrosine-protein kinase ABL1 (Homo sapiens, UniProt P00519).

Amino acid sequences for entries named in this document (tags omitted).
UniProt P00519, whole entry: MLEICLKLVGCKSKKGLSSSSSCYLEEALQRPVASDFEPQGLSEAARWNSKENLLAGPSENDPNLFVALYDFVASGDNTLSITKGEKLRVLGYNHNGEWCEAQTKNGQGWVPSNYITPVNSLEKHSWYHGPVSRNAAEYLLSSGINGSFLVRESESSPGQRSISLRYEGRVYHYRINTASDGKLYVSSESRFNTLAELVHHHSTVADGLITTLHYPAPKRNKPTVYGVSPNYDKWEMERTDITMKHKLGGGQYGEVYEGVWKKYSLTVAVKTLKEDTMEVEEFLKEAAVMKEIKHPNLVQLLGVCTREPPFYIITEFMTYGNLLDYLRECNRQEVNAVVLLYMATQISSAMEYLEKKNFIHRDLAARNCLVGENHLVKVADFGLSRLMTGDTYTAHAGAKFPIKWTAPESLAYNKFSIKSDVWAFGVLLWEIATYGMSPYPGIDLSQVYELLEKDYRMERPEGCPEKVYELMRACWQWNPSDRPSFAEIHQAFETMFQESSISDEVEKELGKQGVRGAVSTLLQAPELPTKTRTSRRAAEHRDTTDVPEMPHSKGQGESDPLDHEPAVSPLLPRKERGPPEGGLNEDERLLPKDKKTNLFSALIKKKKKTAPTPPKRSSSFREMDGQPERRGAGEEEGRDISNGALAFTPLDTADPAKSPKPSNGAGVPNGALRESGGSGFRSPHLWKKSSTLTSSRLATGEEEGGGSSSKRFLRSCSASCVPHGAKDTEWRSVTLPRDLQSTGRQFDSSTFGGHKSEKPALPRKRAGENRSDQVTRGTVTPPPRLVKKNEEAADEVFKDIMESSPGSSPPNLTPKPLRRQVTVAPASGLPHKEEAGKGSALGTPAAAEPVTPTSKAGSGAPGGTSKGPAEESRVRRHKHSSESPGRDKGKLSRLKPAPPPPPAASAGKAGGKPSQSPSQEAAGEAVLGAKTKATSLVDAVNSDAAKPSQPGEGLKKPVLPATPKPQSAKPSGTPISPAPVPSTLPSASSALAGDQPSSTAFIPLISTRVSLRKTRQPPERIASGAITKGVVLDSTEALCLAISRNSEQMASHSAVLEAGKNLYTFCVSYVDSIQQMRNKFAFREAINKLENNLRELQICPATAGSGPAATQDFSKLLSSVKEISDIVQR

Among the data in ChEMBL document CHEMBL2029213, “Multiple determinants for selective inhibition of apicomplexan calcium-dependent protein kinase CDPK1” (J Med Chem, 2012) are Ki values, retold here.

As usually defined, the Ki is the equilibrium dissociation constant of an inhibitor or competing ligand from its target. A high value points to a looser hold on the target. Molecule `COc1ccc2cc(-c3nn(C(C)C)c4ncnc(N)c34)ccc2c1` showed a Ki of 750 nM.
